Assay results taken from patent US8637558B2 (Industry-Academic Cooperation Foundation, Chosun University, priority 2008, dated 2014).
pIC50: −log10 of the molar value.

The chains behind the UniProt entries cited, without tags or fusion partners. Where a name states a change or a piece, a line headed by the entry shows the natural chain unless it says otherwise.
UniProt P15428: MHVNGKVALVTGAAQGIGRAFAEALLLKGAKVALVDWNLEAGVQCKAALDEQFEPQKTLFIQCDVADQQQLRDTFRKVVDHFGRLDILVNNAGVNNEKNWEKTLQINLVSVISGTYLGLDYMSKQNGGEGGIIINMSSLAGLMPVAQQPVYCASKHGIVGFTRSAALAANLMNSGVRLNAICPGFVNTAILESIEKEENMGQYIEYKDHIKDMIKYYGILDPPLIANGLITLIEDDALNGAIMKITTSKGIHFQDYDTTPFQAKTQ

Each compound was assayed against 15-PGDH (Homo sapiens (Human), UniProt P15428) (assay: Assay for the activities of 15-PGDH inhibitors (formation of NADH at 340 nm)). Conditions: purified 15-PGDH enzyme, 21 μM PGE2, 0.25 mM NAD+, pH 7.5; concentration inhibiting 50% of 15-PGDH activity.
Format: biochemical
Description: <1-1> Expression and Purification of 15-PGDH
A 15-PGDH cDNA plasmid containing BamHI and EcoRI sites of the pGES-2T expression vector was used to transform Escherichia coli BL-21 lysS in accordance with the ordinarily used in the art. The transformed cells were grown in 500 mL LB medium containing 50 μg/mL ampicillin at 37° C. while being stirred at 220 rpm until the OD600 reached 0.6. Isopropyl β-D-thiogalactoside (1 mM) was added and the cells were allowed to grow for 12 hours at 25° C. Then, the pellets were harvested by centrifugation at 4000×g for 30 minutes at 4° C. The cell pallets were resuspended in 20 mL cell lysis buffer (1×PBS buffer (pH 7.4) containing 1 mM EDTA and 0.1 mM DTT) and sonicated (14×10 s at 4° C.). The disrupted cells were centrifuged at 4000×g for 20 minutes at 4° C. The supernatant was loaded slowly on a glutathione-sepharose 4B column, which was equilibrated at 4° C. with a cell lysis buffer (1×PBS buffer (pH 7.4) containing 1 mM EDTA and 0.1 mM DTT). The column was washed with the lysis buffer until OD280 reached below 0.005. Then, 15-PGDH was eluted from the glutathione-sepharose 4B column at room temperature for 5 minutes by using the elution buffer (50 mM Tris-HCl (pH 8.0) containing 10 mM reduced glutathione, 1 mM EDTA and 0.1 mM DTT). The concentration and the purity of the purified enzyme were determined by SDS-PAGE.
<1-2> Assay for the Activities of 15-PGDH Inhibitors
The absorbance of the reaction mixture was recorded at 340 nm so that the activities of the derivatives according to the present invention as 15-PGDH inhibitors were determined from a standard curve prepared from the absorbance of various concentrations of NADH at 340 nm.

SMILES	pIC50
O=C1NC(=O)/C(=C/c2ccc(OCCN3CCS(=O)(=O)CC3)c(Cl)c2)S1 [Derivative 17, 5-[3-chloro-4-(2-thiomorpholine-1,1-dioxideethoxy)benzylidene]-thiazolidine-2,4-dione]	6.51
O=C1NC(=O)/C(=C/c2ccc(OCc3ccccn3)cc2)S1 [Derivative 26, 5-(4-(pyridin-2-ylmethoxy)benzylidene)thiazolidine-2,4-dione]	5.44
O=C1NC(=O)/C(=C/c2ccc(OCCCCC3CCCCC3)cc2)S1 [Derivative 48, 5-(4-(4-cyclohexylbutoxy)benzylidene)thiazolidine-2,4-dione]	5.22
O=C1NC(=O)/C(=C/c2ccc(OCCOC3CCCCC3)cc2)S1 [Derivative 61, 5-(4-(2-(Cyclohexyloxy)ethoxy)benzylidene)thiazolidine-2,4-dione]	6.66
O=C1NC(=O)/C(=C/c2ccc(OCc3ccccc3)c(Cl)c2)S1 [Derivative 68, 5-(4-(benzyloxy)-3-chlorobenzylidene)thiazolidine-2,4-dione]	7.32
O=C1NC(=O)/C(=C/c2ccc(OCCCCc3ccccc3)c(Cl)c2)S1 [Derivative 71, 5-(3-chloro-4-(4-phenylbutoxy)benzylidene)thiazolidine-2,4-dione]	7.32
O=C1NC(=O)/C(=C/c2cccc(OCCCCc3ccccc3)c2Cl)S1 [Derivative 74, 5-(2-chloro-3-(4-phenylbutoxy)benzylidene)thiazolidine-2,4-dione]	7.27
CC1(COc2ccc(CC3SC(=O)NC3=O)cc2)CCCCC1 (centres unmarked) [Derivative 112, 5-(4-((1-methylcyclohexyl)methoxy)benzyl)thiazolidine-2,4-dione]	5.76
